Tested on: Saccharomyces cerevisiae
Assay: Growth inhibition of Saccharomyces cerevisiae INVSc1 at 100 uM after 18 to 20 hr
Format: organism-based
Conditions: in vivo
How it was run: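 Yeast strains expressing the active elongases were induced in raffinose/galactose medium with herbicide at 100 μM for the 18–20 h incubation. Growth was followed by optical density and compared with cultures lacking inhibitor.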

SMILES: CC(C)OP(=S)(OC(C)C)SCCNS(=O)(=O)c1ccccc1
- Activity: Non-toxic

Source: ChEMBL document CHEMBL3045755, “Specific and differential inhibition of very-long-chain fatty acid elongases from Arabidopsis thaliana by different herbicides” (Proc Natl Acad Sci U S A, 2004)
